Values of other authors as cited in patent US10226476B2, “Method of attenuating reactions to skin irritants” (Dana-Farber Cancer Institute, Inc., priority 2001, dated 2019).

System: CD1d
Conditions: comparison with α-ManCer, from reference (22); cited from earlier work

Substance: 1,2-Dipalmitoyl-sn-Glycero-3-Phosphoethanolamine-N-[Poly(ethylene glycol) 2000] [DPPE-PEG]
- solubility and competition of α-GalCer presentation relative to α-ManCer: significantly more soluble and effective competitor of α-GalCer presentation than α-ManCer
